Reference: ChEMBL document CHEMBL5518194, “An 19F NMR fragment-based approach for the discovery and development of BRCA2-RAD51 inhibitors to pursuit synthetic lethality in combination with PARP inhibition in pancreatic cancer” (Eur J Med Chem, 2024)

How the values were obtained:
BXPC-3 [1] = experiment: Inhibition of homologous recombination in human BXPC-3 cells at 350 uM incubated for 5 hrs by real-time PCR analysis relative to control; format: functional
BXPC-3 [2] = experiment: Inhibition of homologous recombination in human BXPC-3 cells at 20 uM incubated for 5 hrs by real-time PCR analysis relative to control; format: functional
[3] = system: Pancreatic cancer organoid; experiment: Induction of DNA damage in patient derived PT291 pancreatic ductal adenocarcinoma organoid assessed as increase in gamma-H2AX fluorescence intensity at 2 uM incubated for 24 hrs by immunofluorescence analysis; format: functional, tissue-based; conditions: Homo sapiens

Compound	inhibition (BXPC-3 [1])	inhibition (BXPC-3 [2])	Activity [3]
Cc1nc2[nH]c(-c3ccc([N+](=O)[O-])cc3)cc(=O)n2n1	inactive	inactive	
Cc1ccc(-c2cc(=O)n3nc(C(F)(F)F)cc3[nH]2)cc1		inactive	
Cc1cc(=O)n2nc(C(F)(F)F)cc2[nH]1	inactive	inactive	
Cn1ncnc1[C@H]1c2n[nH]c(=O)c3cc(F)cc(c23)N[C@@H]1c1ccc(F)cc1			inactive
CCc1cc2[nH]c(-c3ccc(C)cc3)cc(=O)n2n1		inactive	

Calls of active or inactive are those of the source. The calls are words filed in the database; no cut-off is given here.
